# Laboratory results reported in patent US9956199B2, “Chromane-like cyclic prenylflavonoids for the medical intervention in neurological disorders” (priority 2011, dated 2018).
# Tested on: promoter of the neuronal precursor specific gene doublecortin (DCX)
# Assay: DCX promoter firefly-luciferase assay in primary fetal mouse brain derived (MEF) cells
# Type: cell-based
# Settings: DCX promoter-luciferase transfected MEF cells, stimulated three days
# Protocol: Chromane-like cyclic prenylflavonoids, including the compounds 1a to 1g, 2a, 3a and 3b according to the invention, were tested for their ability to induce the promoter of the neuronal precursor specific gene doublecortin (DCX) in a firefly-luciferase assay using primary fetal mouse brain derived cells (Karl, 2005) in Neurobasal plus 1% FCS.
# Primary mouse embryonic day 16 forebrain (MEF) cultures were prepared as follows. Pregnant NMRI mice (Charles River Laboratories, Sulzfeld, Germany) were sacrificed and the uteri promptly removed and immersed in ice-cold Dulbecco's phosphate buffered saline solution—DPBS (PAA, Pasching, Austria). Eight embryonic day (E) 16 embryos were released from the uteri; forebrains were taken out, separated from surrounding tissues and mechanically dissociated using a razor blade. Subsequently the dissociated cells were collected by 5 min centrifugation at 120×g. The pellet was resuspended in 10 ml PPD-solution containing 0.01% papain (Worthington, England), 0.1% Dispasell (Roche, Basel, Switzerland), 0.01% DNasel (Worthington, England), 12.4 mM MgSO4 dissolved in HBSS w/o Ca/Mg (PAA, Pasching, Austria). The cell suspension was incubated at 37° C. and triturated every ten minutes for three times. […] Cell number was determined by Trypan blue exclusion. […]
compound,measurement,value
"Cc1c(C)c2c(c(C)c1O)CCC(C)(CCCC(C)CCCC(C)CCCC(C)C)O2 (racemic) [tocopherol, 2,5,7,8-tetramethyl-2-(4,8,12 trimethyltridecyl)chroman-6-ol, reference compound]",stimulatory effect on the DCX promoter activity (FF/R relative to control),did not have any significant stimulatory effect
